Assays:
[1] = Tigecycline plasma PK and % F after intraduodenal (ID) injection in anesthetized rats; assay type: in vivo; conditions: female, Sprague-Dawley, rat, other: intraduodenal injection, 4.8 mg/kg, pH 3.5, ID, 400 mM CA (pH 3.5), 26 mM LLC, 4.8 mg/kg (RA851), parent Tigecycline peak only, relative to 0.64 mg/kg IV
Method: Naïve, female Sprague-Dawley Rats (Taconic Farms, Germantown, N.Y.) housed in groups of three were maintained in a climate-controlled room on a 12:12 h light-dark cycle with food and water available ad libitum. Animals weighed approximately 250 g at the time of testing. Rats were fasted overnight (with water available), prior to dosing. Tigecycline stock was prepared fresh on the day of each study in water and diluted in the indicated formulations.
Intravenous (IV) doses were administered as a bolus injection into the left carotid […] at a dose volume of 1.6 mL/kg. Intraduodenal doses were administered as bolus injections into the duodenum at a dose volume of 1.2 mL/kg. […]
Female rats were maintained in groups of 3 per polycarbonate (or equivalent) shoebox cage with fresh wood chip bedding at 20-22° C. under a 12 hour on/off light:dark cycle. […] Animal weights were determined post-anesthesia induction. […]
An intraduodenal injection was utilized to mimic oral delivery of an enterically coated capsule or tablet formulation. […] The measured site was identified by inserting a small piece of surgical suture underneath the site for injection. […] Blood samples (˜0.5 mL) were collected from a surgically implanted cannula in the right carotid artery for plasma tigecycline concentration analysis prior to dosing and at pre-determined time points post-dose up to either 120 or 240 minutes depending on the study. […]

[2] = Tigecycline plasma PK and % F after PO enteric-coated capsule in dogs; assay type: in vivo, Beagle dogs; conditions: PO 15 mg enteric-coated capsule with 500 mg CA and 100 mg LLC (1.25 mg/kg), SC424; individual dogs
Method: Adult beagle dogs weighing approximately 9 to 15 kg were used in the study. […] Room temperature was set to be maintained between approximately 20±5° C. Relative humidity was monitored but not controlled.
TEKLAD™ Certified Canine Diet was provided once daily in amounts (˜400 grams) appropriate for the size and age of the animals. Tap water was available ad libitum via automatic watering device or water bowls.
Doses are expressed in terms of free net tigecycline content. Intravenous doses of tigecycline were administered as bolus injections at a dose of 1.0 mg/mL. […]
The quantitative determination of tigecycline in dog plasma was performed using an HPLC assay using UV detection at 350 nm. […]
The HPLC system consisted of Shimadzu SIL-HTc HPLC system equipped with dual Shimadzu LC-10ADvp isopumps, a Shimadzu CTO-10ASvp column temperature controller and a Shimadzu SPD-10Avp variable wavelength detector. The chromatographic separation was based on Li et al. with some notable differences (See Li et al., 2004, Quantitation of tigecycline, a novel glycylcycline, by liquid chromatography. J. Chromatography B. 811:225-229). […]
The unknown concentration in dog plasma samples was determined by interpolation of the peak area ratios of analyte:internal standard versus the ratio of their nominal concentrations into the regression line obtained from calibration standards spiked in pooled dog plasma. […]

What does the source list for `CN(C)c1cc(NC(=O)CNC(C)(C)C)c(O)c2c1C[C@H]1C[C@H]3[C@H](N(C)C)C(O)=C(C(N)=O)C(=O)[C@@]3(O)C(O)=C1C2=O` [Tigecycline]?
bioavailability [1]: 20.3%; Tmax [2]: 1.75 h
